Assay results published in patent US5596072.

How the values were obtained:
[1] = biological target: hIL-4R-S protein on Ba/F3 cells (hIL-4R ligand-binding protein deleted for most of the intracellular domain) (human) (UniProt P24394); assay: displacement of I^125-hIL-4 from Ba/F3 hIL-4R-S cells
[2] = biological target: hIL-4R-S protein on Ba/F3 cells (hIL-4R ligand-binding protein deleted for most of the intracellular domain) (human) (UniProt P24394); assay: displacement of I^125-hIL-4 from Ba/F3 hIL-4R-S cells, Ligand computer program
[3] = biological target: functional human IL-4 receptor (hIL-4R) on TF-1 cells (human) (UniProt P24394); assay: competitive displacement of I^125-hIL-4 from TF-1 cells
[4] = biological target: functional human IL-4 receptor (hIL-4R) on TF-1 cells (human) (UniProt P24394); assay: competitive displacement of I^125-hIL-4, TF-1 against Ba/F3 hIL-4R-S cells
[5] = biological target: functional human IL-4 receptor (hIL-4R) on TF-1 cells (human) (UniProt P24394); assay: displacement of I^125-hIL-4 from TF-1 cells

Row | fold less avid binding than hIL-4 [1] [fold] | Kd [2] [nM] | fold lower affinity than hIL-4 [3] [fold] | fold higher apparent affinity than for Ba/F3 hIL-4R-S cells [4] [fold] | IC50 [5] [nM] | IC50 [1] [nM] | Substance
1 | 3.5 | 0.62 | 50 | – | – | – | hIL-4.Y124D (hIL-4.Tyr124 to Asp) (from UniProt P05112) (ligand)
2 | – | 0.16 | – | 50 | 0.002 | 0.2 | human interleukin-4 (hIL-4) (from UniProt P05112) (ligand)
